This note sets out measurements from patent US7592163B2 (The Board of Trustees of the University of Illinois, priority 2004, dated 2009).

Values joined by “and” are separate entries in the source; they are usually repeats but may differ in a detail not shown here. Identical values can stand only once.

Data set [1] deals with Nicotinamide adenine dinucleotide phosphate reduced. Description: Kinetic analysis of N. crassa XR: initial rates, NAD(P)H consumption at 340 nm, with cofactors and sugar substrates. In kind it is biochemical, Neurospora crassa. Conditions: other: xylose reduction with the named coenzyme, 25° C., 50 mM MOPS pH 6.3.
Data set [2] concerns Nicotinamide adenine dinucleotide reduced. Described as above. In kind it is biochemical, Neurospora crassa. Conditions: other: xylose reduction with the named coenzyme, 25° C., 50 mM MOPS pH 6.3.
Data set [3] has as its system Nicotinamide adenine dinucleotide phosphate reduced. The experiment in a line: purified protein, by the assay type. The following applies: other: KM of the coenzyme, xylose 300 mM, 25° C., 50 mM MOPS pH 6.3.
Data set [4] deals with Nicotinamide adenine dinucleotide reduced. Description: purified protein, by the assay type. The following applies: other: KM of the coenzyme, xylose 300 mM, 25° C., 50 mM MOPS pH 6.3.
Substrate in data set [5]: OC1OC[C@@H](O)[C@@H](O)[C@H]1O
The experiment in a line: Kinetic analysis of N. crassa XR: initial rates, NAD(P)H consumption at 340 nm, with cofactors and sugar substrates. In kind it is biochemical, Neurospora crassa. Conditions: other: KM of the sugar substrate, NADPH as cofactor, 25° C., 50 mM MOPS pH 6.3.

On to N. crassa XR (Neurospora crassa OR74A), for which the catalytic constant (kcat) is 60 s⁻¹ in data set [1]; 5.17 s⁻¹ and 5.2 s⁻¹ in data set [2]. Further, the figures for the Km in data set [3] and in data set [4] were 1.8 µM and 16 µM, respectively. The kcat/Km in data set [3] was 3.333e+07 M⁻¹ s⁻¹; in data set [4], 317000 M⁻¹ s⁻¹.

B1: N. crassa XR (Neurospora crassa OR74A) (protein)
chain: MVPAIKLNSGFDMPQVGFGLWKVDGSIASDVVYNAIKAGYRLFDGACDYGNEVECGQGVARAIKEGIVKREELFIVSKLWNTFHDGDRVEPIVRKQLADWGLEYFDLYLIHFPVALEYVDPSVRYPPGWHFDGKSEIRPSKATIQETWTAMESLVEKGLSKSIGVSNFQAQLLYDLLRYAKVRPATLQIEHHPYLVQQNLLNLAKAEGIAVTAYSSFGPASFREFNMEHAQKLQPLLEDPTIKAIGDKYNKDPAQVLLRWATQRGLAIIPKSSREATMKSNLNSLDFDLSEEDIKTISGFDRGIRFNQPTNYFSAENLWIFG
On to B1, for which the kcat in data set [5] amounted to 52 ± 1.67 s⁻¹.

One may read the kcat as the maximal rate divided by the concentration of active sites. The term Km denotes the concentration of substrate that gives half-maximal velocity. As usually defined, the kcat/Km is the turnover number divided by the Michaelis constant.
